{
  "source": "ChEMBL document CHEMBL6182921",
  "about": "“Structural Optimization of Next-Generation TRK Inhibitors against Acquired Drug Resistance Mutations for the Treatment of Solid Tumors” (J Med Chem, 2025)",
  "tested_on": "BaF3",
  "details": "Mus musculus, dose 1.0 nmol/L, time 2.0 hrs",
  "note": "Active and inactive are the calls of the source. The rule behind the calls is not given here.",
  "data": [
    {"smiles": "C[C@@H]1CCc2ncc(F)cc2[C@H]2CCCN2c2ccn3ncc(c3n2)C(=O)N1", "note": "[SELITRECTINIB]", "values": [
      {"measurement": "inhibition", "result": "Active"}
    ]}
  ]
}
